Assay results: article PMC5976250 (The Biochemical journal, 2017)

Target: recombinant rat CaM (calmodulin) (rat)
Assay: MALDI mass spectrometry

stoichiometry N: 1
B1: Cx45p_(164–186) (peptide)
peptide: GRRRIREDGLMKIYVLQLLARTV
modifications: acylated (Ac-) N-terminus; aminated (-NH2) C-terminus
